Laboratory results published in patent US20130243764A1.
“And” between values parts separate entries of the source, which are not always exact repeats. Equal values may be shown once. One block for each substance: values may come before it.

How the values were obtained:
[1] = target: recombinant cynomolgus FcRn (cynomolgus) (UniProt Q8SPV9); assay: ProteOn SPR, antibody amine-coupled on GLC chip, FcRn analyte, equilibrium model, pH 6.0, 25 C; pH 6.0; antibody amine-coupled on GLC chip
[2] = target: recombinant cynomolgus TNF alpha (cynomolgus) (UniProt P79337); assay: Biacore T100 SPR, antibody captured on anti-human IgG, TNF alpha analyte, 37 C
[3] = target: recombinant cynomolgus TNF alpha (cynomolgus) (UniProt P79337); assay: Biacore T100 SPR, antibody captured on Protein A, TNF alpha analyte, 37 C
[4] = target: recombinant cynomolgus FcRn (cynomolgus) (UniProt Q8SPV9); assay: ProteOn SPR, antibody captured on Protein L, cynomolgus FcRn analyte, equilibrium model, pH 6; pH 6; Protein L capture; batch GRITS44348
[5] = target: recombinant cynomolgus FcRn (cynomolgus) (UniProt Q8SPV9); assay: ProteOn SPR, antibody captured on Protein L, cynomolgus FcRn analyte, equilibrium model, pH 6; pH 6; Protein L capture; batch Clinical grade
[6] = target: recombinant cynomolgus FcRn (cynomolgus) (UniProt Q8SPV9); assay: ProteOn SPR, antibody amine-coupled on GLC chip, FcRn analyte, equilibrium model, pH 7.4, 25 C (no saturation; ranking only); pH 7.4; antibody amine-coupled on GLC chip; no saturation, ranking only
[7] = target: recombinant human FcγRIIIa (valine 158 variant) (human) (UniProt P08637); assay: ELISA, plate coated with recombinant human FcγRIIIa V158 at 1 µg/ml, anti-human kappa-HRP detection (Example 10) [a]
[8] = target: recombinant cynomolgus FcRn (cynomolgus) (UniProt Q8SPV9); assay: ProteOn SPR, antibody amine-coupled on GLC chip, FcRn analyte, equilibrium model, pH 7.4, 25 C (no saturation; ranking only)
[9] = target: recombinant human FcRn (human) (UniProt P55899); assay: as above
[10] = target: recombinant cynomolgus FcRn (cynomolgus) (UniProt Q8SPV9); assay: ProteOn SPR, antibody amine-coupled on GLC chip, FcRn analyte, equilibrium model, pH 6.0, 25 C
[11] = target: recombinant human FcRn (human) (UniProt P55899); assay: as above
[12] = target: recombinant human FcRn (human) (UniProt P55899); assay: ProteOn SPR, antibody amine-coupled on GLC chip, FcRn analyte, equilibrium model, pH 6.0, 25 C; pH 6.0; antibody amine-coupled on GLC chip
[13] = target: recombinant human FcRn (human) (UniProt P55899); assay: ProteOn SPR, antibody captured on Protein L, human FcRn analyte, equilibrium model, pH 7.4, expt 5
[14] = target: recombinant human FcRn (human) (UniProt P55899); assay: ProteOn SPR, antibody captured on Protein L, human FcRn analyte, equilibrium model, pH 6, expt 1
[15] = target: TNF alpha (species not given); assay: ProteOn SPR reverse assay, biotinylated TNF alpha captured on NLC chip, antibody analyte, 1:1 model, apparent kinetics
[16] = target: recombinant cynomolgus FcRn (cynomolgus) (UniProt Q8SPV9); assay: ProteOn SPR, antibody captured on Protein L, cynomolgus FcRn analyte, equilibrium model, pH 7.4
[17] = target: TNF alpha (species not given); assay: cell-based or functional assay
[18] = target: recombinant cynomolgus FcRn (cynomolgus) (UniProt Q8SPV9); assay: ProteOn SPR, antibody captured on Protein L, cynomolgus FcRn analyte, equilibrium model, pH 6
[19] = target: recombinant human FcRn (human) (UniProt P55899); assay: ProteOn SPR, antibody captured on Protein L, human FcRn analyte, equilibrium model, pH 6, expt 2
[20] = target: recombinant human FcRn (human) (UniProt P55899); assay: ProteOn SPR, antibody captured on Protein L, human FcRn analyte, equilibrium model, pH 6, expt 3
[21] = target: recombinant cynomolgus FcRn (cynomolgus) (UniProt Q8SPV9); assay: ProteOn SPR, antibody captured on Protein L, cynomolgus FcRn analyte, pH 6
[22] = target: recombinant human FcRn (human) (UniProt P55899); assay: ProteOn SPR, antibody captured on Protein L, human FcRn analyte, equilibrium model, pH 7.4, expt 2
[23] = target: recombinant human FcRn (human) (UniProt P55899); assay: ProteOn SPR, antibody amine-coupled on GLC chip, FcRn analyte, equilibrium model, pH 7.4, 25 C (no saturation; ranking only); pH 7.4; antibody amine-coupled on GLC chip; no saturation, ranking only
[24] = target: recombinant human FcRn (human) (UniProt P55899); assay: ProteOn SPR, antibody captured on Protein L, human FcRn analyte, equilibrium model, pH 7.4, expt 3
[25] = target: recombinant human FcRn (human) (UniProt P55899); assay: ProteOn SPR, antibody captured on Protein L, human FcRn analyte, equilibrium model, pH 6, expt 5 (** treat with caution)
[26] = target: recombinant human FcRn (human) (UniProt P55899); assay: ProteOn SPR, antibody captured on Protein L, human FcRn analyte, equilibrium model, pH 6, expt 4
[27] = target: recombinant human FcRn (human) (UniProt P55899); assay: ProteOn SPR, antibody captured on Protein L, human FcRn analyte, equilibrium model, pH 6, expt 5
[28] = target: recombinant human FcRn (human) (UniProt P55899); assay: ProteOn SPR, antibody captured on Protein L, human FcRn analyte, equilibrium model, pH 7.4, expt 5 (** treat with caution)
[29] = target: recombinant human FcRn (human) (UniProt P55899); assay: ProteOn SPR, antibody captured on Protein L, human FcRn analyte, pH 6.0; pH 6.0; Protein L capture; range over experiments, relative to BPC1492
[30] = target: recombinant human tumour necrosis factor alpha (TNFα) (human) (UniProt P01375); assay: direct binding ELISA on human TNFα after 2 weeks at 37 °C in 25% human serum (Example 8)
[31] = target: recombinant human tumour necrosis factor alpha (TNFα) (human) (UniProt P01375); assay: direct binding ELISA on human TNFα after the accelerated stressor study, 2 weeks at 37 °C (Example 7)

Kd [1]: 579 nM | Kd [2]: 0.191 nM | Kd [3]: 0.101 nM | Kd [4]: 398 nM | Kd [5]: 394 nM | Kd [6]: 29700 nM | EC50 (read off the curve) [7]: 0.008 µg/mL
Substance: BPC1492 (antibody)

Kd [8]: 4690 nM | Kd [9]: 4390 nM | Kd [10]: 295 nM | Kd [11]: 264 nM
Substance: BPC1493 (antibody)

Substance: BPC1494 (antibody)
Kd [12]: 204 nM | Kd [13]: 12600 nM and 11700 nM | Kd [14]: 66 nM | Kd [15]: 0.484 nM | koff [15]: 0.00035 s⁻¹ | kon [15]: 723000 M⁻¹ s⁻¹ | Kd [16]: 14800 nM and 13300 nM and 13700 nM | IC50 value, L929 neutralisation assay (cell viability) [17]: 1.2 µg/mL | IC50 value, TNFα-induced IL-6 release assay (whole blood) [17]: 0.62 nM | Kd [18]: 46.8 nM and 41.8 nM and 43.2 nM | Kd [19]: 0.359 nM and 0.979 nM | Kd [20]: 0.701 nM and 1.96 nM and 2.43 nM | Kd [8]: 2640 nM | fold improvement in binding affinity compared to BPC1492 [21]: 9 fold | Kd [22]: 2010 nM and 9190 nM and 9330 nM | Kd [23]: 2320 nM | Kd [24]: 1760 nM and 10500 nM and 10900 nM | Kd [25]: 6.08 nM | Kd [26]: 1.33 nM and 4.05 nM and 4.5 nM | Kd [27]: 24.9 nM and 26.2 nM | Kd [28]: 2020 nM | fold improvement in binding affinity compared to BPC1492 [29]: 3.5 fold | Kd [10]: 239 nM

Substance: BPC1494 (antibody; other documents disagree on this pair)
EC50 (read off the curve) [30]: 0.02 µg/mL | EC50 (read off the curve) [31]: 0.02 µg/mL

Substance: BPC1496 (antibody)
Kd [15]: 0.639 nM | IC50 value, L929 neutralisation assay (cell viability) [17]: 1.18 µg/mL | IC50 value, TNFα-induced IL-6 release assay (whole blood) [17]: 0.64 nM | Kd [8]: 2100 nM | EC50 (read off the curve) [7]: 0.008 µg/mL

Substance: BPC1496 (antibody; other documents disagree on this pair)
EC50 (read off the curve) [30]: 0.02 µg/mL | EC50 (read off the curve) [31]: 0.01 µg/mL

Kd [8]: 6280 nM | Kd [9]: 5910 nM | Kd [10]: 402 nM | Kd [11]: 357 nM
Substance: BPC1498 (antibody)

Substance: BPC1499 (antibody)
Kd [15]: 0.008 nM | koff [15]: 1.72e-05 s⁻¹ | kon [15]: 2.27e+06 M⁻¹ s⁻¹ | IC50 value, L929 neutralisation assay (cell viability) [17]: 0.21 µg/mL | IC50 value, TNFα-induced IL-6 release assay (whole blood) [17]: 0.14 nM

Kd [15]: 0.06 nM
Substance: BPC1501 (antibody)
